## scFv variants of Ab-14 (heavy chain) against a SARS-CoV-2 spike peptide

Antigen: PDVDLGDISGINAS, a 14-residue peptide of the SARS-CoV-2 spike HR2 region.

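The starting antibody came from a phage panning campaign against this peptide. AAYL49 was designed without a model: most single CDR substitutions and a random sample of double and triple ones. The scFvs were displayed on barcoded MATa yeast, the peptide on MATalpha yeast. After mating in shaken culture at 30 °C for 16 h, diploids were selected and their barcode pairs sequenced. Read counts were normalised to the haploid input and turned into Kd by a linear fit to BCL2-family pairs of known affinity, for each replicate. Mating was done three times.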

Ab-14 is the parent antibody, in scFv form: VH, then a 15-residue (Gly4Ser)3 linker, then VL. The light chain is unchanged in all variants.
VH: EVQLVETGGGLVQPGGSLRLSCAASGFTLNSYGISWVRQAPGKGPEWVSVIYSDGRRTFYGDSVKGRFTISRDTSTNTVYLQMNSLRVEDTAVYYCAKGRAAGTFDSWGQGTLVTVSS
VL: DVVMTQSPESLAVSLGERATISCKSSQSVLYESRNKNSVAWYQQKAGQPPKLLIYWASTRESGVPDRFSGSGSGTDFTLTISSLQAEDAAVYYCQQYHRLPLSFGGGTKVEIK

Changes read parent residue, position, new residue, counted from the first residue of the VH shown.
Values are apparent Kd, the geometric mean of the replicates that gave a signal; lower means stronger binding.
A pair that was not seen in any replicate is written "nd"; this usually means weak binding, but a binder can also be missed.
Background: pairings of library AAYL49 with three empty control strains gave a value in 15% of cases (median 11 µM, 5th percentile 680 nM). Values in that range, when seen in few replicates, are hard to tell from nonspecific mating.

The variant I34G R57V F105K showed 410 µM (2 of 3 replicates).
The variant V50L Y52D V64E showed nd (0 of 3 replicates).
The variant G33P T58E K65F showed nd (0 of 3 replicates).
The variant T28H Y52L T58K showed 20 µM (2 of 3 replicates).
The variant N30A S63E A101T showed 4.6 nM (3 of 3 replicates).
The variant I34K S63R showed 30 µM (3 of 3 replicates).
The variant L29R I51V showed 3.2 µM (1 of 3 replicates).
The variant S53H R56P showed 320 µM (1 of 3 replicates).
The variant T28F G61M R100F showed 20 µM (2 of 3 replicates).
The variant Y60M D62Q F105S showed 150 µM (2 of 3 replicates).
The variant F27M S53V G55D showed nd (0 of 3 replicates).
The variant S35V R56W G61I showed 62 µM (1 of 3 replicates).
The variant N30I F105T D106N showed nd (0 of 3 replicates).
The variant L29V N30V R56M showed 1.5 µM (3 of 3 replicates).
The variant V50H T58D S63G showed nd (0 of 3 replicates).

Second part, the sequence after the result:

nd (0 of 3 replicates): T58E D62C S107Y.
43 µM (1 of 3 replicates): T28P G33P Y52E.
56 µM (1 of 3 replicates): I34N T58D F105N.
10 nM (3 of 3 replicates): T28A L29V N30T.
90 µM (2 of 3 replicates): N30V I51M V64M.
nd (0 of 3 replicates): I34K I51A A102C.
190 µM (1 of 3 replicates): S53C R56P T58N.
nd (0 of 3 replicates): Y60G G99P.
3.3 µM (3 of 3 replicates): N30L D62G A102S.
nd (0 of 3 replicates): I34W Y52V T104F.
63 µM (2 of 3 replicates): R57H A102M D106N.
nd (0 of 3 replicates): G26D V50P D62Y.
40 µM (2 of 3 replicates): G55M Y60W A102Q.
6.5 µM (1 of 3 replicates): S35A T58Y A101L.
nd (0 of 3 replicates): S35W K65G A102I.

For reference, 3 entries of the list once more:

changes	Kd	replicates with signal
N30L D62G A102S	3.3 µM	3 of 3
T28P G33P Y52E	43 µM	1 of 3
S53H R56P	320 µM	1 of 3

In this assay the parent's reference entry averaged 4.4 nM; its copy inside this library read 13 µM (one replicate of three).

Reference: Engelhart et al. 2022, doi:10.1038/s41597-022-01779-4. File: FLAb, binding data.